Here are results for 45 compounds from PubChem BioAssay AID463104 (Sanford-Burnham Center for Chemical Genomics, 2010).

Only a part is listed here, and it is no random draw. The source made the active and inactive calls.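 Rule for the calls: active = versus positive control, 20 µM dose yields 30% or more activation; inactive = the rest.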

A short description of this assay: activators of adaptive XBP1 UPR arm, primary screen, cell-based, CHO-XBP1 luciferase reporter, luminescence, uHTS (AID 463104).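 Note: 100% = tunicamycin at 10 µg/mL and 0% = DMSO only wells.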 To be noted: IRE1-XBP1 UPR activation, at 20 µM, hits give high values, percent of tunicamycin response, DMSO as zero. A digest of the protocol: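 Signal: luciferase luminescence; Assay system: CHO-XBP1 luciferase reporter cells; Amount: one thousand reporter cells per well; Dosing: 20 µM single concentration, DMSO 1%; Benchmarks: high control tunicamycin 10 µg/mL final, low control DMSO vehicle only; Schedule: 6 h compound exposure at 37 °C, 5% CO2; Evaluation: percent activation relative to tunicamycin reference.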
In general terms: In a reporter assay the amount or activity of a reporter protein is the signal.
Consider `O=C(OC1CN2CCC1CC2)c1ccccc1` (stereo not given), for which the activation was inactive: -3.89%.
In the case of `CCC(=O)N1C2C3N(C(=O)CC)C1C1N(C(=O)CC)C(C(N1C(=O)CC)N3C(=O)CC)N2C(=O)CC`, the activation is inactive: -4.67%.
As for `COC(=O)c1cc2c(s1)N=C(c1ccccc1)N(C)P2(=O)N1CCOCC1` (stereo not given), the activation was inactive: -5.5%.
For `CC(=O)NC(SC(=S)N(CC(C)C)CC(C)C)C(Cl)(Cl)Cl` (stereo not given) the value was inactive: 4.03%; for `Cc1ccc(OP(=O)(Nc2ccccn2)Oc2ccc(C)cc2)cc1`, inactive: 0.35%; for `Cc1ccccc1OP(=O)(Nc1ccccn1)Oc1ccccc1C`, inactive: -5.02%.
In the case of `CC(NC(=O)COC(=O)C(O)(c1ccccc1)c1ccccc1)c1ccccc1` (stereo not given), the activation was inactive: -1.71%.
On to `CN(C)C(=O)Oc1noc2ccccc12`, for which the activation was inactive: -0.98%.
With `O=P(Nc1nc2ccc(Cl)cc2s1)(c1ccccc1)c1ccccc1`, the activation is inactive: 0.65%.
As for `O=C(O)c1ccccc1[As](=O)(O)O`, the activation is inactive: -4.32%.
For `CC(=O)Nc1ccc([As](=O)(O)O)cc1`, the activation is inactive: 0.49%.
Take `CCOP(=O)(Nc1ccccc1)OCC`: the activation was inactive: -0.28%.
With `Cc1cc(SC(NC(=O)c2ccc(F)cc2)C(Cl)(Cl)Cl)ncn1` (stereo not given), the activation is inactive: -1.09%.
For `Cc1ccc(NP(=O)(Oc2ccccc2F)Oc2ccccc2F)nc1` the value was inactive: 2.85%.
As to `CN(C(=O)Cc1ccc(Cl)c(Cl)c1)[C@H]1CCCC[C@@H]1N1CCCC1`, the activation is inactive: -6.19%.
In the case of `O=[N+]([O-])c1cc([N+](=O)[O-])c(CCN2CCOCC2)c([N+](=O)[O-])c1`, the activation was inactive: -8.49%.
Take `CCN(N=Nc1nonc1N)c1nonc1N`: the activation is inactive: -1.58%.
Turning to `CN(C(=O)Cc1ccc(Cl)c(Cl)c1)[C@H]1CCCC[C@H]1N1CCCC1`, the activation is inactive: -8.87%.
Consider `Cc1ccc(N/C(=N/P(=O)(N2CCOCC2)N2CCOCC2)N2CCOCC2)cc1`, for which the activation is inactive: -8%.
On to `NC(=O)c1cc([N+](=O)[O-])cc([N+](=O)[O-])c1N`, for which the activation is inactive: -4.54%.
In the case of `Clc1ccc(Cl)c(NC2=NCC(CBr)S2)c1` (stereo not given), the activation was inactive: -3.36%.
For `CN1CCCC(OC(=O)C(c2ccccc2)c2ccccc2)C1` (stereo not given), the activation was inactive: -0.88%.
For `COc1ccccc1OP(=O)(Nc1ccc(C)cn1)Oc1ccccc1OC` the value was inactive: -4.98%; for `Cc1ccc(OP(=O)(Nc2nccs2)Oc2ccc(C)cc2)cc1`, inactive: -1.28%; for `Oc1ccccc1CNc1ccccn1`, inactive: 0.32%.
With `Cc1c2non([O-])c-2c(C)[n+](=O)[n+]1[O-]`, the activation was inactive: -3.21%.
Consider `O=C(NC(Sc1ccncn1)C(Cl)(Cl)Cl)c1ccccc1` (stereo not given), for which the activation was inactive: 2.57%.
On to `CC(C)CC(=O)NC(Sc1ccc(Cl)cc1)C(Cl)(Cl)Cl` (stereo not given), for which the activation was inactive: 1.9%.
With `Nc1cc(N)c2nonc2c1[N+](=O)[O-]` the figure was inactive: -2.89%; with `COc1ccc(C2=NCC(CBr)S2)cc1` (stereo not given), inactive: -1.05%.
For the compound `Cc1ccc(NP(=O)(Oc2ccccc2)Oc2ccccc2)nc1`, the activation is inactive: -0.57%.
As to `CCc1nc2c(n1)c1c(non1O)c1c2no[n+]1[O-]`, the activation was inactive: -8.43%.
With `O=[N+]([O-])c1cc([N+](=O)[O-])c(CCNc2ccccc2)c([N+](=O)[O-])c1`, the activation was inactive: -3.2%.
For the compound `O=[N+]([O-])c1cccc2n[nH]nc12`, the activation is inactive: -0.25%.
For `CC(=O)N1C2C3N(C(C)=O)C1C1N(C(C)=O)C(C(N1C(C)=O)N3C(C)=O)N2C(C)=O`, the activation is inactive: -3.42%.
With `CCN(/C(=N/P(=O)(N1CCOCC1)N1CCOCC1)N1CCOCC1)c1ccc(OC)cc1`, the activation is inactive: 0.67%.
With `Nc1ccc([As](=O)(O)c2ccc(N)cc2)cc1` the figure was inactive: -1.86%; with `C[N+]1=C2C=CC=CC=C2SC12C([N+](=O)[O-])=CC([N+](=O)[O-])=C[C-]2[N+](=O)[O-]` (stereo not given), inactive: -1.61%; with `CC1CCN(C(=O)Oc2c(Cl)cc(Cl)c3cccnc23)CC1`, inactive: -0.85%.
For the compound `CC(C)=N/N=C(\N)N[N+](=O)[O-]`, the activation was inactive: -2.59%.
Take `CN(C)C(=O)OCCc1n(C)cc[n+]1C`: the activation is inactive: -2.75%.
For the compound `O=C(Nc1cc([As](=O)(O)O)ccc1O)c1ccccc1`, the activation was inactive: -6.85%.
For `O=[N+]([O-])c1ncn(CCn2ncnc2[N+](=O)[O-])n1` the value was inactive: 11.3%.
With `CC(C)(C)C(=O)NC(Sc1ccncn1)C(Cl)(Cl)Cl` (stereo not given) the figure was inactive: -3.55%; with `O=[N+]([O-])c1cccc(NC2=NCC(CBr)S2)c1` (stereo not given), inactive: 0.71%.
